{
  "sequences": {"note": "By UniProt entry, the sequences of proteins in these tests, tags left out. Where a name states a change or a piece, a line headed by the entry shows the natural chain unless it says otherwise.", "UniProt Q8N4C8": "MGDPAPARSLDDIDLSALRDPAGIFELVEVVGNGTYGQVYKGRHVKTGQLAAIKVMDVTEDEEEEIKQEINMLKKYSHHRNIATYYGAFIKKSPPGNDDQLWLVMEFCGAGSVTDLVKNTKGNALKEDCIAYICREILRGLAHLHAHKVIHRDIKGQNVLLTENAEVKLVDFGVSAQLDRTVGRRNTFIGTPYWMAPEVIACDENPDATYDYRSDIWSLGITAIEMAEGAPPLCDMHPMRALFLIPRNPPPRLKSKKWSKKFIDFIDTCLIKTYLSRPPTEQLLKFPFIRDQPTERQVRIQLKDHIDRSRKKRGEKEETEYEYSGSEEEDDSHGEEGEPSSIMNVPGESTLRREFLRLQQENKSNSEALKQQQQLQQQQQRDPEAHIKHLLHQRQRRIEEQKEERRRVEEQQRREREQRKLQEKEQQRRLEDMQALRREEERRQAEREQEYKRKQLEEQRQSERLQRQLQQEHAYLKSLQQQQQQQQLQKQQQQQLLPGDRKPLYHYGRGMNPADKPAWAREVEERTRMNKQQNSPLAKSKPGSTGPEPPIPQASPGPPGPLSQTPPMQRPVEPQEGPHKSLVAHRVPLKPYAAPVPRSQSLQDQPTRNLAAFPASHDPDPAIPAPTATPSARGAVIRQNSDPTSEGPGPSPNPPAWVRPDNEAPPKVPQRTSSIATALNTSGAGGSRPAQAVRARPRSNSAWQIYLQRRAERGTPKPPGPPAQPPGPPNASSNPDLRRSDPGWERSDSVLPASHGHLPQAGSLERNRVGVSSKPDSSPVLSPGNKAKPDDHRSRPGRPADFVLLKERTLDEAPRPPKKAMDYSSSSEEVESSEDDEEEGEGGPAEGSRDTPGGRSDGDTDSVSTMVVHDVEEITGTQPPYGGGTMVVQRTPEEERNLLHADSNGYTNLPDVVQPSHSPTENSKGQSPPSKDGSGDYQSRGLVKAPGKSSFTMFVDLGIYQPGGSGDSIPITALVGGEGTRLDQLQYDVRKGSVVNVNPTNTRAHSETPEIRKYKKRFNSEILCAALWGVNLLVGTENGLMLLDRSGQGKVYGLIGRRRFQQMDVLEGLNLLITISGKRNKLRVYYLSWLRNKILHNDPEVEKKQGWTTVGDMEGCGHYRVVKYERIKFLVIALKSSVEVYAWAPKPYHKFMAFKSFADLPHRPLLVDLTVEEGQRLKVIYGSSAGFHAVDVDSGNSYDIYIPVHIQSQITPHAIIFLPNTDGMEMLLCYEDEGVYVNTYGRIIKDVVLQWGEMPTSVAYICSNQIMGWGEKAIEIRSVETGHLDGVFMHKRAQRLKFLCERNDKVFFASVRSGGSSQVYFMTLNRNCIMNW"},
  "source": "ChEMBL document CHEMBL3886876",
  "about": "“Kinase modulators for the treatment of cancer” (2016)",
  "target": "Misshapen-like kinase 1 (Homo sapiens, UniProt Q8N4C8)",
  "test": "Kinase Assay: FlashPlates from Perkin Elmer (Boston, Mass., USA) with a 50 μl reaction volume are used. The reaction cocktail was pipetted in 4 steps in the following order: 15 μl of ATP solution (in H2O), 20 μl of assay buffer (see below), 5 μl of test sample in 10% DMSO, 10 μl of enzyme/substrate mixture (in H2O). The assay for all enzymes contained 60 mM HEPES-NaOH, pH 7.5, 3 mM MgCl2, 3 mM …",
  "note": "pIC50: −log10 of the molar value.",
  "data": [
    {"smiles": "Nc1c(-c2ccc(F)cc2)c(-c2ccncc2)nn1-c1c(Cl)cc(Cl)cc1Cl", "values": [
      {"measurement": "pIC50", "value": 7.00}
    ]}
  ]
}
